Tested on: non-soluble type I collagen
Assay: Non-soluble type I collagen production by HDF, direct ELISA
Type: cell-based, human
Conditions: for % CTRL (COL-I): 4 days, vs water; for % CTRL (Cell # Standardized): non-soluble collagen I standardized to cell numbers
Experimental: Adult human dermal fibroblasts (Cell Applications, San Diego, Calif.) were plated in DMEM without phenyl red supplemented with 5% FBS and 1% penicillin/streptomycin (PS) at a concentration of 8,000 cells/well. Test materials, which were stored at 4° C. until dissolved at 20 mg/ml in ddH2O, were added the next day on attached exponentially-growing cells. Negative and positive controls were, respectively, type I sterile water and L-Ascorbic acid 2-phosphate sesquimagnesium salt (“MAP”) (Sigma-Aldrich).
Cells were then fixed with 2.5% trichloroacetic acid (TCA) at 4° C., dried overnight, and tested for non-soluble type I collagen, using direct ELISA.
Cells proliferation was quantified by staining cytoskeletons with sulforhodamine B according to the colorimetric method of Voigt, “Sulforhodamine B assay and chemosensitivity,” Methods Mol. Med. Vol. 110, pp. 39-48 (2005). Statistical significance was assessed with two-tailed paired Student test. Deviations of >15% as compared to the negative water control with p values below 0.05 were considered statistically significant.
The effect of test materials on non-soluble collagen I production, cell numbers, and non-soluble collagen I standardized to cell numbers expressed as % of the negative control (water) are presented in the following table.

L-Ascorbic acid 2-phosphate sesquimagnesium salt [MAP, reference compound]
% CTRL (COL-I) (50 μg/mL): 132 % CTRL | % CTRL (COL-I) (100 μg/mL): 141 % CTRL | % CTRL (Cell # Standardized) (50 μg/mL): 117 % CTRL | % CTRL (Cell # Standardized) (100 μg/mL): 138 % CTRL
